Laboratory results published in PubChem BioAssay (NCI).
Some of these compounds have results that are not shown, active ones among them.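 Compound exposure: 48 hours, 5 concentrations, 96-well plates. GI50 is the concentration that inhibits growth by half. TGI: concentration producing complete growth inhibition.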

How the values were obtained:
Experiment in all cases: DTP human tumour cell line panel, 48 h
U251 CNS = tested on: U251 CNS
SF-539 CNS = tested on: SF-539 CNS
MDA-MB-231 breast = tested on: MDA-MB-231 breast
SW-620 colon = tested on: SW-620 colon
SK-MEL-2 melanoma = tested on: SK-MEL-2 melanoma
K-562 leukemia = tested on: K-562 leukemia
ACHN renal = tested on: ACHN renal
LOX IMVI melanoma = tested on: LOX IMVI melanoma
786-0 renal = tested on: 786-0 renal
SNB-19 CNS = tested on: SNB-19 CNS
UACC-62 melanoma = tested on: UACC-62 melanoma
MCF7 breast = tested on: MCF7 breast
EKVX NSCLC = tested on: EKVX NSCLC
SK-MEL-5 melanoma = tested on: SK-MEL-5 melanoma
SF-268 CNS = tested on: SF-268 CNS
TK-10 renal = tested on: TK-10 renal
HL-60(TB) leukemia = tested on: HL-60(TB) leukemia
HCT-116 colon = tested on: HCT-116 colon
SNB-75 CNS = tested on: SNB-75 CNS
OVCAR-8 ovarian = tested on: OVCAR-8 ovarian
CAKI-1 renal = tested on: CAKI-1 renal
KM12 colon = tested on: KM12 colon
MOLT-4 leukemia = tested on: MOLT-4 leukemia
PC-3 prostate = tested on: PC-3 prostate
SF-295 CNS = tested on: SF-295 CNS
BT-549 breast = tested on: BT-549 breast
NCI/ADR-RES ovarian = tested on: NCI/ADR-RES ovarian
SK-MEL-28 melanoma = tested on: SK-MEL-28 melanoma
OVCAR-5 ovarian = tested on: OVCAR-5 ovarian
M14 melanoma = tested on: M14 melanoma
IGROV1 ovarian = tested on: IGROV1 ovarian
NCI-H23 lung = tested on: NCI-H23 lung
UACC-257 melanoma = tested on: UACC-257 melanoma
HS 578T breast = tested on: HS 578T breast
HT29 colon = tested on: HT29 colon
OVCAR-4 ovarian = tested on: OVCAR-4 ovarian
HCC-2998 colon = tested on: HCC-2998 colon
T-47D breast = tested on: T-47D breast
COLO 205 colon = tested on: COLO 205 colon
MDA-MB-435 = tested on: MDA-MB-435
SN12C renal = tested on: SN12C renal
A498 renal = tested on: A498 renal
MDA-N = tested on: MDA-N
UO-31 renal = tested on: UO-31 renal
SK-OV-3 ovarian = tested on: SK-OV-3 ovarian
A549 NSCLC = tested on: A549 NSCLC
RPMI-8226 leukemia = tested on: RPMI-8226 leukemia
NCI-H460 lung = tested on: NCI-H460 lung
OVCAR-3 ovarian = tested on: OVCAR-3 ovarian
DU-145 prostate = tested on: DU-145 prostate
RXF 393 renal = tested on: RXF 393 renal
SR leukemia = tested on: SR leukemia
HOP-92 NSCLC = tested on: HOP-92 NSCLC
CCRF-CEM leukemia = tested on: CCRF-CEM leukemia
HCT-15 colon = tested on: HCT-15 colon
HOP-62 NSCLC = tested on: HOP-62 NSCLC

CC#CC(O)(C(=O)OC1CCN(C)CC1)C(C)C (configuration not stated)
GI50 (U251 CNS): > 100 µM | TGI (U251 CNS): > 100 µM | GI50 (SF-539 CNS): > 100 µM | TGI (SF-539 CNS): > 100 µM | GI50 (MDA-MB-231 breast): > 100 µM | TGI (MDA-MB-231 breast): > 100 µM | GI50 (SW-620 colon): > 100 µM | TGI (SW-620 colon): > 100 µM | GI50 (SK-MEL-2 melanoma): > 100 µM | TGI (SK-MEL-2 melanoma): > 100 µM | GI50 (K-562 leukemia): > 100 µM | TGI (K-562 leukemia): > 100 µM | GI50 (ACHN renal): > 100 µM | TGI (ACHN renal): > 100 µM | GI50 (LOX IMVI melanoma): > 100 µM | TGI (LOX IMVI melanoma): > 100 µM | GI50 (786-0 renal): > 100 µM | TGI (786-0 renal): > 100 µM | GI50 (SNB-19 CNS): > 100 µM | TGI (SNB-19 CNS): > 100 µM | GI50 (UACC-62 melanoma): > 100 µM | TGI (UACC-62 melanoma): > 100 µM | GI50 (MCF7 breast): > 100 µM | TGI (MCF7 breast): > 100 µM | GI50 (EKVX NSCLC): > 100 µM | TGI (EKVX NSCLC): > 100 µM | GI50 (SK-MEL-5 melanoma): > 100 µM | TGI (SK-MEL-5 melanoma): > 100 µM | GI50 (SF-268 CNS): > 100 µM | TGI (SF-268 CNS): > 100 µM | GI50 (TK-10 renal): > 100 µM | TGI (TK-10 renal): > 100 µM | GI50 (HL-60(TB) leukemia): > 100 µM | TGI (HL-60(TB) leukemia): > 100 µM | GI50 (HCT-116 colon): > 100 µM | TGI (HCT-116 colon): > 100 µM | GI50 (SNB-75 CNS): > 100 µM | TGI (SNB-75 CNS): > 100 µM | GI50 (OVCAR-8 ovarian): > 100 µM | TGI (OVCAR-8 ovarian): > 100 µM | GI50 (CAKI-1 renal): > 100 µM | TGI (CAKI-1 renal): > 100 µM | GI50 (KM12 colon): > 100 µM | TGI (KM12 colon): > 100 µM | GI50 (MOLT-4 leukemia): > 100 µM | TGI (MOLT-4 leukemia): > 100 µM | GI50 (PC-3 prostate): > 100 µM | TGI (PC-3 prostate): > 100 µM | GI50 (SF-295 CNS): > 100 µM | TGI (SF-295 CNS): > 100 µM | GI50 (BT-549 breast): > 100 µM | TGI (BT-549 breast): > 100 µM | GI50 (NCI/ADR-RES ovarian): > 100 µM | TGI (NCI/ADR-RES ovarian): > 100 µM | GI50 (SK-MEL-28 melanoma): > 100 µM | TGI (SK-MEL-28 melanoma): > 100 µM | GI50 (OVCAR-5 ovarian): > 100 µM | TGI (OVCAR-5 ovarian): > 100 µM | GI50 (M14 melanoma): > 100 µM | TGI (M14 melanoma): > 100 µM | GI50 (IGROV1 ovarian): > 100 µM | TGI (IGROV1 ovarian): > 100 µM | GI50 (NCI-H23 lung): > 100 µM | TGI (NCI-H23 lung): > 100 µM | GI50 (UACC-257 melanoma): > 100 µM | TGI (UACC-257 melanoma): > 100 µM | GI50 (HS 578T breast): > 100 µM | TGI (HS 578T breast): > 100 µM | GI50 (HT29 colon): > 100 µM | TGI (HT29 colon): > 100 µM | GI50 (OVCAR-4 ovarian): > 100 µM | TGI (OVCAR-4 ovarian): > 100 µM | GI50 (HCC-2998 colon): > 100 µM | TGI (HCC-2998 colon): > 100 µM | GI50 (T-47D breast): > 100 µM | TGI (T-47D breast): > 100 µM | GI50 (COLO 205 colon): > 100 µM | TGI (COLO 205 colon): > 100 µM | GI50 (MDA-MB-435): > 100 µM | TGI (MDA-MB-435): > 100 µM | GI50 (SN12C renal): > 100 µM | TGI (SN12C renal): > 100 µM | GI50 (A498 renal): > 100 µM | TGI (A498 renal): > 100 µM | GI50 (MDA-N): > 100 µM | TGI (MDA-N): > 100 µM | GI50 (UO-31 renal): > 100 µM | TGI (UO-31 renal): > 100 µM | GI50 (SK-OV-3 ovarian): > 100 µM | TGI (SK-OV-3 ovarian): > 100 µM | GI50 (A549 NSCLC): > 100 µM | TGI (A549 NSCLC): > 100 µM | GI50 (RPMI-8226 leukemia): > 100 µM | TGI (RPMI-8226 leukemia): > 100 µM | GI50 (NCI-H460 lung): > 100 µM | TGI (NCI-H460 lung): > 100 µM | GI50 (OVCAR-3 ovarian): > 100 µM | TGI (OVCAR-3 ovarian): > 100 µM | GI50 (DU-145 prostate): > 100 µM | TGI (DU-145 prostate): > 100 µM | GI50 (RXF 393 renal): > 100 µM | TGI (RXF 393 renal): > 100 µM | GI50 (SR leukemia): > 100 µM | TGI (SR leukemia): > 100 µM | GI50 (HOP-92 NSCLC): > 100 µM | TGI (HOP-92 NSCLC): > 100 µM | GI50 (CCRF-CEM leukemia): > 100 µM | TGI (CCRF-CEM leukemia): > 100 µM | GI50 (HCT-15 colon): > 100 µM | TGI (HCT-15 colon): > 100 µM | GI50 (HOP-62 NSCLC): > 100 µM | TGI (HOP-62 NSCLC): > 100 µM
